# Tested on: nesfatin
# Assay: Binding specificity of anti-nesfatin-1 antibody: Western blotting of rat brain extracts after pre-reaction with peptides
# Conditions: 5 µg peptide per 1 µg anti-nesfatin-1 antibody, room temperature, 1 hour
# Method: Western blotting analysis was carried out by the method described in Working Example 3 with the primary antibody being changed from anti-NAP polyclonal antibody to anti-nesfatin-1 antibody. Before reacting anti-nesfatin-1 antibody to the membrane in Western blotting as an experiment for investigating the binding specificity of anti-nesfatin-1 antibody, 5 µg of each peptide of NAP1-Ab (Working Example 10), and leptin (Rat leptin: R & D Systems, 598-LP-01M), αMSH (Melanocyte Stimulating Hormone; Peptide Institute, Inc., 4057-v), CART (Rat Cocaine- and Amphetamine-Regulated Transcript 55-102; Peptide Institute, Inc., 4351-s), NPY (Human, Rat Neuropeptide Y; Peptide Institute, Inc., 4158-v), MCH (Human Melanin-Concentrating Hormone; Peptide Institute, Inc., 4369-v) and Orexin-A (Human, Rat, Mouse, Bovine Orexin-A; Peptide Institute, Inc., 4346-s) per 1 µg of anti-nesfatin-1 antibody was added, and reacted at room temperature for 1 hour, and then Western blotting was carried out in the method described above to examine whether or not the bands disappear.
substance,measurement,value
"CART: Rat Cocaine- and Amphetamine-Regulated Transcript 55-102; Peptide Institute, Inc., 4351-s (IPIYEKKYGQVPMCDAGEQCAVRKGARIGKLCDCPRGTSCNSFLLKCL)",47.5 kd band of nesfatin in Western blotting after pre-reaction of anti-nesfatin-1 antibody with the peptide,did not disappear

# — patent EP1900813A1, “NOVEL PHYSIOLOGICAL SUBSTANCE NESFATIN, SUBSTANCE RELEVANT THERETO, AND USE OF THE SUBSTANCES” (Teijin Pharma Limited, priority 2005, dated 2008)
